In PMC6530574:

Biological target: HiLyte Fluor 488-labeled Aβ(1-40) (UniProt P05067)
Test: FRET or BRET

Kd: 1.9 µM
Substance: TTR-594 with hRBP bound (from UniProt P02766 21-147; P02753 19-201) (complex; other documents disagree on this pair)
